Target: T1, A2BAR (Homo sapiens, UniProt P29275)
T1 sequence (P29275 1-332): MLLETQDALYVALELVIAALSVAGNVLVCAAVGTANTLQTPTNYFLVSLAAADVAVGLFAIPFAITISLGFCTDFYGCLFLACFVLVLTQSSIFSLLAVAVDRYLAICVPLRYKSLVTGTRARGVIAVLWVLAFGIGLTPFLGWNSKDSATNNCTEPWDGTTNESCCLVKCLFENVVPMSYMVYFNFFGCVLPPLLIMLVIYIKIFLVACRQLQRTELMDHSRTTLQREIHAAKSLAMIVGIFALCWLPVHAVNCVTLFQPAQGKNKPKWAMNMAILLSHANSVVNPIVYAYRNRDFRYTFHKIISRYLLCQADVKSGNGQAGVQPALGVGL
Settings: agonist concentration-response curves with increasing antagonist

CCCn1c(=O)c2[nH]c(-c3ccc(OCC(=O)NCCN)cc3)nc2n(CCC)c1=O [XAC, xanthine amine congener] was tested, and the “mode of antagonism (in words)” value was “competitive interaction”.

— article PMC5770336, “Characterisation of endogenous A2A and A2B receptor-mediated cyclic AMP responses in HEK 293 cells using the GloSensor™ biosensor: Evidence for an allosteric mechanism of action for the A2B-selective antagonist PSB 603” (Biochemical Pharmacology, 2018)
